Reference: patent USRE36744E, “Nasal administration of benzodiazepine hypnotics” (Ribogene, Inc., priority 1994, dated 2000)

Test: Comparative oral versus nasal pharmacokinetics of midazolam in dogs (plasma, GC assay)
Assay type: in vivo, beagle dogs
Details: nasal vs oral
Description: The efficacy of oral versus nasal administration of midazolam was examined using the methodology of Example 1, but modified to allow at least three weeks between studies.
Oral Administration Studies: Five mg equivalent of midazolam free base solution was given to each of four dogs with 50 ml of water. […] The plasma samples were stored frozen until GC assay for midazolam.
Nasal Administration Studies: 55.6 milligrams of midazolam HCl powder was dissolved in 4 ml of distilled water. […] Air bubbles generated during mixing were removed by centrifugation. The pH of the solution was 3.62.
Midazolam solution was sprayed, using a meter dose inhaler into both nostrils of the dogs. The dose given to each dog was 7.85, 7.89, 7.22, 5.61 mg free base. […] The plasma samples were frozen until GC assay for midazolam.
GC Assay--for extraction, 0.5 ml of plasma, 100 μl of internal standard (100 ng/ml flurazepam in methanol) and 0.5 ml of 2N sodium hydroxide were vortexed for 5 seconds. Five ml of hexane was then added and the mixture was vortexed for one min. and centrifuges for 4 minutes. […] Fifty μl of hexane/isoamyl alcohol (80:20) was used for reconstitution.
Midazolam in plasma was assayed by a Hewlett Packard model 5830A GC-EC. […] The temperatures for column, injector port and detector were 250°, 310° and 310° C., respectively. The flow rate for argon/methane (95:5) gas was 33 ml/min.

Q: For `Cc1ncc2n1-c1ccc(Cl)cc1C(c1ccccc1F)=NC2` [midazolam], which “Bioavailability after nasal versus oral administration” value is on record?
A: significant increase in bioavailability
